Tested on: PARP7 protein levels
Assay: Endogenous PARP7 protein levels in CT-26 cells
Assay type: cell-based, mouse

B1: recombinant IFN-β: recombinant IFN-β, type I interferon (protein, UniProt P01574 22-187, looked up)
Interferon beta: MSYNLLGFLQRSSNFQCQKLLWQLNGRLEYCLKDRMNFDIPEEIKQLQQFQKEDAALTIYEMLQNIFAIFRQDSSSTGWNETIVENLLANVYHQINHLKTVLEEKLEKEDFTRGKLMSSLHLKRYYGRILHYLKAKEYSHCAWTIVRVEILRNFYFINRLTGYLRN
  PARP7 levels after recombinant IFN-β: did not increase PARP7 levels
